The results in this text go back to ChEMBL document CHEMBL1144895, “Synthesis and anticonvulsant activity of novel bicyclic acidic amino acids” (J Med Chem, 2003).

By UniProt entry, the sequences of proteins in these tests, tags left out. Where a name states a change or a piece, a line headed by the entry shows the natural chain unless it says otherwise.
UniProt P23385: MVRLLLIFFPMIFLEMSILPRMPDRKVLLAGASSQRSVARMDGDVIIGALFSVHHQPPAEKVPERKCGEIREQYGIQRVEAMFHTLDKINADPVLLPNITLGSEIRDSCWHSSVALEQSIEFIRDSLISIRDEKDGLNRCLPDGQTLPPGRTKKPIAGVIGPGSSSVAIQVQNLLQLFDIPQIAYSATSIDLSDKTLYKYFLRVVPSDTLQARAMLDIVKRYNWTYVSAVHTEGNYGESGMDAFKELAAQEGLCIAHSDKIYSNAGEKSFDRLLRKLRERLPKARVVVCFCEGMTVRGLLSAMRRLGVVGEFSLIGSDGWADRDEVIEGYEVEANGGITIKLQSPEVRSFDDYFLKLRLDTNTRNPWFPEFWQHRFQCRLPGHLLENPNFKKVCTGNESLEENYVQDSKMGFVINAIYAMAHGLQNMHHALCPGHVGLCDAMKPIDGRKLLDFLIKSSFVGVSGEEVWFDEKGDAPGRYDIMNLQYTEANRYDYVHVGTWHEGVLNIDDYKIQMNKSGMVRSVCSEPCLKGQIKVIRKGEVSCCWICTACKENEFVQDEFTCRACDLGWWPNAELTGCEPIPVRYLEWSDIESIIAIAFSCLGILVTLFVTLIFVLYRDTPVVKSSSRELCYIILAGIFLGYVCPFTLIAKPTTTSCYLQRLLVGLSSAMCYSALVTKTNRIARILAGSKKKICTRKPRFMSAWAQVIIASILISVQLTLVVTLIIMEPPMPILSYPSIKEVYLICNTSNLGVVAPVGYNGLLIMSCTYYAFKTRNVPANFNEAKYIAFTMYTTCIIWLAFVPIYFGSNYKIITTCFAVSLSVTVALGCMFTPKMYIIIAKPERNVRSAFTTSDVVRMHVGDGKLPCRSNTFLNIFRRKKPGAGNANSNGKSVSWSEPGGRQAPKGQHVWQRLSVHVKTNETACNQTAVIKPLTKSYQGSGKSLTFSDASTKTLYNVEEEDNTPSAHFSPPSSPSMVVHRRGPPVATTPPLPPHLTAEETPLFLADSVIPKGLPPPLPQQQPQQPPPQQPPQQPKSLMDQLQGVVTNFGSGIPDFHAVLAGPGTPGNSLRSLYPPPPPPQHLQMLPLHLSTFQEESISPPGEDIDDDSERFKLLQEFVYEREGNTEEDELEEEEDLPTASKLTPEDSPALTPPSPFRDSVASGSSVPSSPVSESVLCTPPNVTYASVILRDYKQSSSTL

This experiment concerns the target Metabotropic glutamate receptor 1 (Rattus norvegicus, UniProt P23385). The experiment is described as follows: Activity tested at cloned rat Metabotropic glutamate receptor 1 expressed in Chinese Hamster Ovary (CHO) cells. The experiment is classed as functional, cell-based.

Usually EC50 stands for the concentration needed to bring the measured effect to its halfway point. High values mean weaker potency, low ones greater potency.

Compound `N[C@@]1(C(=O)O)CC[C@@H](C(=O)O)C1` (racemic) gave an EC50 of 15 µM.
